# This is a selection; strong and weak results do not stand in their true shares. Calls of active or inactive are those of the source. Rule as the data show it: active = potentiation above about 50%; inconclusive = mostly about 30% to 49%; inactive = weaker than that.
# The chains behind the UniProt entries cited, without tags or fusion partners.
# UniProt P14416, whole entry: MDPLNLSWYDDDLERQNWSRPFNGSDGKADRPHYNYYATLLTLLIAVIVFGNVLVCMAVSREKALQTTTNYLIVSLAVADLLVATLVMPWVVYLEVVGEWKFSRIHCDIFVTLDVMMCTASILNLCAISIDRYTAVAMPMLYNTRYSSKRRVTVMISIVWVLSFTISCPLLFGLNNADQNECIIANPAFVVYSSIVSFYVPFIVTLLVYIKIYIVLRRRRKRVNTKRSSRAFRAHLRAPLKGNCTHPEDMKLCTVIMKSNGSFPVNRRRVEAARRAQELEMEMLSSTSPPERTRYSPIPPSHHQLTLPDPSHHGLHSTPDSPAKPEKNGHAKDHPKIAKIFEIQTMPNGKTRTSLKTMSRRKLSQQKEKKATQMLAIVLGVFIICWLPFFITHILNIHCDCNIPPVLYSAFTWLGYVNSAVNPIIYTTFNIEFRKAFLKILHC
# Biological target: D(2) dopamine receptor (Homo sapiens) (UniProt P14416)
# Assay: Beta-Arrestin HTS for Positive Allosteric Modulators of the Human D2 Dopamine Receptor: Potentiators
# Conditions: DiscoveRx D2 beta-arrestin cells, luminescence, 90 min; active compounds read high; 100% = 57 uM dopamine signal
# Procedure, shortened: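 PathHunter D2 cells, attached overnight at 37 deg C, received compound in DMSO plus dopamine at EC20 (50 nM final) for 90 min at 37 deg C. Beta-arrestin recruitment was read as luminescence after 1 h with detection reagent at ambient temperature.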
row,SMILES,potentiation
1,CP(=O)(NC(=O)Nc1ccccc1)Oc1ccccc1 (stereo unspecified),inactive: 5.13%
2,O=C(COc1ccccc1)OC1CN2CCC1CC2 (stereo unspecified),inactive: -8.53%
3,CCc1ccc(OP(C)(=O)N2CCN(c3ccc([N+](=O)[O-])cc3)CC2)cc1 (stereo unspecified),inactive: -7.15%
4,O=C(Nc1ccncc1[N+](=O)[O-])c1ccc([N+](=O)[O-])cc1[N+](=O)[O-],inactive: 4.42%
5,Cc1cc(C)cc(OP(C)(=O)Nc2ccc(SC(F)(F)F)cc2)c1 (stereo unspecified),inactive: -2.48%
6,O=C(OC1CN2CCC1CC2)c1cccc([N+](=O)[O-])c1 (stereo unspecified),inactive: -6.28%
7,CCOP(C)(=S)SCC(=O)NC(C)C(=O)O (stereo unspecified),inactive: -18.3%
8,CSc1ccc(Nc2c([N+](=O)[O-])cc([N+](=O)[O-])cc2[N+](=O)[O-])cc1,inactive: -24.8%
9,O=[N+]([O-])c1cc([N+](=O)[O-])c(O)c([N+](=O)[O-])c1.c1ccc(Oc2ccncc2)cc1,inactive: -23.9%
10,CCOC(=O)c1ccc(NC(=O)C(C)(CCl)SC)cc1 (stereo unspecified),inactive: -7%
11,CCOC(=O)c1ccc(NP(C)(=O)Oc2ccc(OC)cc2)cc1 (stereo unspecified),inactive: 3.39%
12,CCC(C)N(CC(C)C)C(=S)SC(NC(C)=O)C(Cl)(Cl)Cl (stereo unspecified),inactive: -23%
13,CP(=O)(Nc1ccccn1)Oc1ccc(Cl)cc1 (stereo unspecified),inactive: -18.2%
14,O=C(O)C(=O)c1ccc(N(CCCl)CCCl)cc1.c1ccc(Nc2ccccc2)cc1,inactive: -7.52%
15,CCOC(=O)Nc1ccc([As](=O)(O)O)c(O)c1,inactive: 2.79%
16,CC1CCNP(=O)(N(CCCl)CCCl)O1 (stereo unspecified),inactive: -15.6%
17,COP(=O)(OC)N1CC1c1ccccc1 (stereo unspecified),inactive: -8.18%
18,CCCCOc1ccc(C(=O)NCC2(N3CCCCC3)CCCCC2)cc1OC,inactive: -10.4%
19,Cc1cc(SC(NC(=O)c2ccccc2)C(Cl)(Cl)Cl)nc(C(C)C)n1 (stereo unspecified),inactive: -11.5%
20,CP(=S)(Nn1cnnc1)Oc1ccccc1 (stereo unspecified),inactive: -3.45%
21,CCOC(=O)Nc1cccc([As](=O)(O)O)c1,inactive: -3.83%
22,Cc1cc(SC(NC=O)C(Cl)(Cl)Cl)ncn1 (stereo unspecified),inactive: -6.42%
23,O=P(Nc1ccccn1)(c1cccc2ccccc12)c1cccc2ccccc12,inactive: -1.99%
24,COc1ccccc1OP(C)(=O)Nc1ccccc1 (stereo unspecified),inactive: -0.0722%
25,CP(=O)(Nc1ccccc1Br)Oc1ccccc1 (stereo unspecified),inactive: -2.2%
26,O=[N+]([O-])c1ccc(Nc2ccc(Oc3ccc([N+](=O)[O-])cc3[N+](=O)[O-])cc2)c([N+](=O)[O-])c1,inactive: -13.2%
